Source: ChEMBL document CHEMBL4376885 (J Med Chem, 2020)

Key:
Assay type in all cases: ADME, organism-based
Conditions in all cases: in vivo
[1] = Oral bioavailability in Wistar rat at 10 mg/kg by LC-MS/MS analysis
[2] = Clearance in Wistar rat at 2 mg/kg, iv by LC-MS/MS analysis
[3] = Oral bioavailability in Kunming mouse at 10 mg/kg by LC-MS/MS analysis
[4] = AUC (0 to infinity) in Wistar rat at 2 mg/kg, iv by LC-MS/MS analysis; parameters: dose 2 mg/kg, route intravenous, time infinity

Cc1cc(/C=C/C#N)cc(C)c1Oc1nc(Nc2ccc(C#N)c(F)c2)nc2ccsc12
F [1]: 6.31%
CL [2]: 3.83 mL/min/kg
F [3]: 5.38%
AUC [4]: 88400 ng·h/mL
